Source: paper PMC5783350, “Development of an activity-based probe for acyl-protein thioesterases” (PLoS ONE, 2018)

System: HsAPT1 and HsAPT2 in intact U-2 OS cells
Experiment: Intact mammalian cell labeling, in-gel fluorescence
Assay type: cell-based, human

Substance: fluorophosphonate rhodamine
- Labeling of HsAPT1 and HsAPT2 in intact U-2 OS cells: did not significantly label any species
